Data from US20200237759A1, “DOSAGE REGIME AND METHOD FOR TREATING PULMONARY ARTERIAL HYPERTENSION” (Altavant Sciences GmbH, priority 2019, published 2020).

What was measured:
[1] = Part 2 MAD plasma pharmacokinetics, BID oral KAR5585 for 14 days; details: 400 mg/dose BID Fed, Cohort 4, Day 7 PM
serum 5-HT = assay: Part 2 MAD biomarker: serum 5-HT change from Day 1; format: in vivo, human; details: 400 mg fed and all KAR5585 doses pooled
Text: (§1) Biomarkers were to be evaluated in Part 2 by measuring concentrations of serotonin (5-hydroxytryptamine [5-HT]) in serum and 5-hydroxyindoleacetic acid (5-HIAA) in plasma and urine. As well, the relationship of biomarkers to PK parameters was to be evaluated.
(§2) The biomarker analysis was to be based on the Biomarker Population (all subjects with evaluable biomarker measurements at baseline [Day 1 predose] and at least one after dosing [Day 7 or Day 14]).
(§3) Biomarker data were to be collected only in Part 2. The following biomarkers were to be analyzed: • Serum 5-HT • Plasma 5-HIAA • Urine 5-HIAA/24 hours (as measured, adjusted, estimated, and per gram creatinine)
(§4) Linear regression was to be performed using biomarker changes, absolute and relative (%), from Day 1, at predose on Day 7 or Day 14 versus AUC0-24, Cmax, and Cmin in corresponding study days. […]
(§5) The biomarker portion of the study was conducted in Part 2 MAD using the Biomarker Population. The biomarkers evaluated were serum 5-HT and plasma 5-HIAA, as well as urine 5-HIAA/24 hours (as measured, adjusted, estimated, and per gram creatinine). Urinary 5-HIAA was determined by a validated (21 C.F.R. 58, GLP-compliant) method using liquid chromatographic separation and tandem mass spectrometry detection. […]
(§6) Biomarker data were analyzed for each KAR5585 dose separately, for all KAR5585 doses pooled, and for all placebo subjects pooled. […]

[2] = Part 1 SAD urine pharmacokinetics (urinary excretion, renal clearance)
[3] = Part 1 SAD plasma pharmacokinetics of KAR5585 and KAR5417 after a single oral dose of KAR5585 (fasting; fed food effect)
urine 5-HIAA/24 hours = assay: Part 2 MAD biomarker: urine 5-HIAA/24 hours change from Day 1; format: in vivo, human; details: all dose groups; exception: relative change on Day 14, 100 mg fasting
Text: as §1, §2, §3, §4, §5, §6

CCOC(=O)[C@@H]1CC2(CCN(c3cc(O[C@H](c4ccc(Cl)cc4-c4ccccc4)C(F)(F)F)nc(N)n3)CC2)CN1 [KAR5585, (S)-ethyl 8-(2-amino-6-((R)-1-(5-chloro-[1,1′-biphenyl]-2-yl)-2,2,2-trifluoroethoxy)pyrimidin-4-yl)-2,8-diazaspiro[4.5]decane-3-carboxylate]
AUC0-24 (Geo. Mean) [1]: 870 ng·h/mL | mean difference of absolute and relative changes from Day 1 to Day 14 in serum 5-HT compared to placebo (serum 5-HT): statistically significant in favor of KAR5585 | Plasma AUC0-96 Mean ([2]; KAR5585 100 mg single oral dose): 49.7 ng·h/mL | Plasma AUC0-96 Mean ([2]; KAR5585 200 mg single oral dose): 100 ng·h/mL | Plasma AUC0-96 Mean ([2]; KAR5585 400 mg single oral dose, fasted): 303 ng·h/mL | Plasma AUC0-96 Mean ([2]; KAR5585 400 mg single oral dose, fed): 917 ng·h/mL | Plasma AUC0-96 Mean ([2]; KAR5585 700 mg single oral dose): 436 ng·h/mL | Plasma AUC0-96 Mean ([2]; KAR5585 1200 mg single oral dose): 463 ng·h/mL | Plasma AUC0-96 Mean ([2]; KAR5585 2000 mg single oral dose): 779 ng·h/mL | exposure (AUC0-tau and AUC0-inf) under fed relative to fasting conditions ([3]; 400 mg KAR5585 single dose): 3.1-4.8 fold | increase in Cmax, fed relative to fasting ([3]; 400 mg KAR5585 single dose): 3.2 fold | peak exposure (Cmax) higher under fed relative to fasting conditions ([3]; 400 mg KAR5585 single dose): approximately 3.9 fold | peak mean concentrations higher under fed relative to fasting conditions ([3]; 400 mg KAR5585 single dose): approximately 320% | Cmax Geometric LS Mean Ratio ([3]; Cohort 3B (Fed) versus Cohort 3A (Fasting), 400 mg KAR5585): 3.92 | AUC0-12 Geo. Mean ([3]; KAR5585 400 mg single oral dose, fed, Cohort 3B): 756 ng·h/mL | differences of absolute and relative changes from Day 1 in measured urine 5-HIAA versus placebo (urine 5-HIAA/24 hours): statistically significant in favor of KAR5585 in all dose groups except one
